{
  "source": "PubChem BioAssay AID602332",
  "about": "(National Center for Advancing Translational Sciences (NCATS), 2012)",
  "note": "The campaign covered roughly 420,000 compounds. About 75 (0.02%) were called active. The source calls these results inconclusive, neither active nor inactive. Calls follow the shape of the dose curve; as a rule, active = well fitted activation curve with a large enough effect; inconclusive = small, poorly fitted or top-dose-only effect; inactive = no such curve, though single readings can be large or run the other way.",
  "data": [
    {"assay": "qHTS for Inducers of the Endoplasmic Reticulum Stress Response (ERSR) in Human Glioma: qHTS; also: potency is read from the fitted curve at half-maximal effect; nearly all actives have a fitted effect of over 35% in size", "conditions": "U87-MG GRP78 promoter luciferase reporter, 16 h", "values": [
      {"molecule": "Cc1ccc2nc3c(c(C)c2c1)CC(C(Cl)Cl)S3", "note": "(stereo unspecified)", "Potency": "inconclusive: 5.01 µM"}
    ]}
  ]
}
